Assay results: US6362163B1, “Parathyroid hormone-related peptide analogs” (The General Hospital Corporation, priority 1996, dated 2002)
Read-outs that look alike come from different tables or passages of the source.

Sequences of proteins named here, by UniProt entry; tags and fusion partners are left off. Residues count along the entry.
UniProt P49190, 25-550: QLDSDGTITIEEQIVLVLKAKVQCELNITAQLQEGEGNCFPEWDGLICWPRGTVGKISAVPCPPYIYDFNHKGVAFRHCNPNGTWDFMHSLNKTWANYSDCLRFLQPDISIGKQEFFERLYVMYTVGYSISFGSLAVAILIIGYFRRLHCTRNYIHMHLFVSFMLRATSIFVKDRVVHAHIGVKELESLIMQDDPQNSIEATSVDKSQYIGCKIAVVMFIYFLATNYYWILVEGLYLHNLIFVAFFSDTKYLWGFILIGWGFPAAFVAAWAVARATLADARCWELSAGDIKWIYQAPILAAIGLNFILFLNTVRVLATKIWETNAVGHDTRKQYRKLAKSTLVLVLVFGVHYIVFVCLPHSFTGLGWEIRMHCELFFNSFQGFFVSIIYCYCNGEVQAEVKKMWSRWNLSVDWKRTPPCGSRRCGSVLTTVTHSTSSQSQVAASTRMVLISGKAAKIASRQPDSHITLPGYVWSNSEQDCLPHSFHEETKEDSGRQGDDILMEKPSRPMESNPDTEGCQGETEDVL

Tests used:
PTH-2 receptor [1] = target: T1, PTH-2 receptor (Homo sapiens, UniProt P49190); assay: Competition radioligand binding, COS-7 cells transfected with human PTH-2 receptor
T1 construct: expressed in transfected cells; host or cells: COS-7 cells, transient transfection, vector pcDNAI/Amp
Procedure: (§1) The cDNAs encoding the human PTH/PTHrP receptor (Schipani, E. et al., Endocrinology 132:2157-2165 (1993)) and the human PTH-2 receptor (Usdin, T. et al., J. Biol. Chem. 270:15455-15458 (1995)) were carried on the expression vectors pcDNA-1 and pcDNAI/Amp (InVitrogen, San Diego, Calif.), respectively. COS-7 cells were cultured and transfected as described previously (Lee, C. et al., Mol. Endocrinol. 9:1269-1278 (1995)). Cells were transfected in 24-well plates using plasmid DNA (200 ng/well) purified by cesium chloride/ethidium bromide gradient centrifugation. Ligand binding and cAMP accumulation assays were performed three days after transfection, by which time the cell density reached 500,000±100,000 cells/well.
(§2) Binding reactions were performed as described previously. Id. Each well (final volume: […]) contained 26 fmole of ^125I-[Nle^8,21,Tyr^34]rPTH(1-34)NH2 (100,000 CPM) and various amounts (0.4-300 pmole) of an unlabeled competitor ligand, both diluted in binding buffer (50 mM Tris-HCl, pH 7.7, 100 mM NaCl, 5 mM KCl, 2 mM CaCl, 5% heat-inactivated horse serum, 0.5% heat-inactivated fetal bovine serum). Incubations were at room temperature for 2 hours, except for experiments involving Scatchard analysis, which were performed at 4° C. for 6 hours. At the end of the binding reaction, the cells were rinsed 3 times with 0.5 ml of binding buffer, lysed with 0.5 ml of 5M NaOH, and the entire lysate was counted. Nonspecific binding of tracer (NSB), determined in wells containing 1 μM of [NleTyr^8,21,Tyr^34]rPTH-(1-34)NH2, was ˜1% of total counts added. Maximum specific binding (B0) was calculated as the total radioactivity bound to cells in the absence of unlabeled PTH ligand, minus NSB. […] For Scatchard analyses, homologous competition binding studies were performed that used ^125I-[-NleTyr^8,21,Tyr^34]rPTH-(1-34)NH2 (26 fmole/well) and varying amounts (1.2-300 pmol) of the same unlabeled ligand. Estimates of the number of receptors/cell derived from these studies assumed a single class of binding sites and a transfection efficiency of 20% (Abou-Samra, A. B. et al., Proc. Natl. Acad. Sci (USA) 89:2732-2736 (1992)).

PTH/PTHrP receptor [2] = target: T2, PTH/PTHrP receptor (Homo sapiens, UniProt Q03431); assay: Competition radioligand binding, COS-7 cells transfected with human PTH/PTHrP receptor
T2 construct: expressed in transfected cells; host or cells: COS-7 cells, transient transfection, vector pcDNA-1
T2 sequence (Q03431 27-593): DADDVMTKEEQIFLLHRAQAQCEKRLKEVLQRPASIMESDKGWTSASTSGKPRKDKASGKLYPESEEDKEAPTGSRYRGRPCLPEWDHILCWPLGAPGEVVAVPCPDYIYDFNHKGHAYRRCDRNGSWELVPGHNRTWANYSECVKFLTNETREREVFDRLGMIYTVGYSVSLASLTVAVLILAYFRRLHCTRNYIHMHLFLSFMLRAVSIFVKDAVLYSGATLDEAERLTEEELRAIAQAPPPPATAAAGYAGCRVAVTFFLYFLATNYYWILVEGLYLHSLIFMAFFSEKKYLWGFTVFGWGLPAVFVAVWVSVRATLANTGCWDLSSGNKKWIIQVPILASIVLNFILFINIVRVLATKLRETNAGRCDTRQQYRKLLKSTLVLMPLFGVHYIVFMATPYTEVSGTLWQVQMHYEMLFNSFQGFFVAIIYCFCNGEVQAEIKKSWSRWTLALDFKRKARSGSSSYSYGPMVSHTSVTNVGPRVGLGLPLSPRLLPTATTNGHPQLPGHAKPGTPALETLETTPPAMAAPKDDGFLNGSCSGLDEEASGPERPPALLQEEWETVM
Procedure: as §1, §2

PTH/PTHrP receptor [3] = target: T2, PTH/PTHrP receptor; assay: Ligand-induced intracellular cAMP accumulation, COS-7 cells expressing human PTH/PTHrP receptor; type: cell-based; conditions: read-out: cAMP accumulation EC50, PTH/PTHrP receptor, 1h at room temperature, IBMX, mean ± s.e.m.
Procedure: as §1
(§3) Transfected COS-7 cells were rinsed with […] of binding buffer. 200 μl of IBMX buffer (DMEM containing 2 mM IBMX, 1 mg/ml bovine serum albumin, 35 mM Hepes-NaOH, pH 7.4) and […] of binding buffer or binding buffer containing various amounts of a PTH or PTHrP analog were then added. The plates were incubated for 60 minutes at room temperature. The buffer was then withdrawn and the cells lysed by placing the plates on powdered dry ice and adding 0.5 ml of 50 mM HCl. The acid lysate was diluted 1/30 in dH2O, and an aliquot (5-50 μl) analyzed for cAMP content by radioimmunoassay. […] For antagonist studies, the inhibitor peptide [Leu^11,D-Trp^12]hPTHrP(7-34)NH2or [Trp^23,Tyr^36]hPTHrP-(1-36)N2H was applied to COS-7 cells in 100 μl of binding buffer two minutes prior to the addition of IBMX buffer that contained a near-maximal stimulatory dose (1.5 nM) of [Tyr^34]hPTH-(1-34)NH2 agonist peptide. The cells were then incubated for 30 minutes at room temperature, and the resulting intracellular cAMP was measured by RIA. Data were analyzed using the AssayZap software (Elsevier Science Publishers BV, Cambridge, United Kingdom).

PTH-2 receptor [4] = target: T1, PTH-2 receptor; assay: Ligand-induced intracellular cAMP accumulation, COS-7 cells expressing human PTH-2 receptor; type: cell-based; conditions: read-out: cAMP accumulation EC50, PTH-2 receptor, 1h at room temperature, IBMX, mean ± s.e.m.
Procedure: as §1, §3

[5] = radioligand 125I-[Nle8,21,Y34]rPTH-(1-34)NH2, 2 hours at room temperature, mean ± s.e.m., read-out: Binding IC50, PTH-2 receptor
[6] = radioligand 125I-[Nle8,21,Y34]rPTH-(1-34)NH2, 2 hours at room temperature, mean ± s.e.m., read-out: Binding IC50, PTH/PTHrP receptor
[7] = read-out: Binding IC50, PTH-2 receptor, radioligand 125I-[Nle8,21,Y34]rPTH-(1-34)NH2, 2 hours at room temperature, mean ± s.e.m.
[8] = read-out: Binding IC50, PTH/PTHrP receptor, radioligand 125I-[Nle8,21,Y34]rPTH-(1-34)NH2, 2 hours at room temperature, mean ± s.e.m.

| Substance | IC50 (PTH-2 receptor [1]; [5]) [nM] | IC50 (PTH/PTHrP receptor [2]; [6]) [nM] | EC50 (PTH/PTHrP receptor [3]) [nM] | IC50 (PTH-2 receptor [1]; [7]) [nM] | IC50 (PTH/PTHrP receptor [2]; [8]) [nM] | EC50 (PTH-2 receptor [4]) [nM] | IC50 (PTH-2 receptor [1]; read-out: Binding IC50, PTH-2 receptor, radioligand 125I-[Nle8,21,Y34]rPTH-(1-34)NH2, 2 hours at room temperature, mean ± s.e.m., listed as hybrid-3) [nM] |
| --- | --- | --- | --- | --- | --- | --- | --- |
| [E22, W23, Y36]hPTHrP-(15-36)NH2 | 137 ± 36 | > 10000 | – | – | – | – | – |
| [F23, Y34]hPTH-(1-34)NH2 | – | – | 0.23 ± 0.02 | 453 ± 53 | 95 ± 11 | – | – |
| [H5, F23, Y34]hPTH-(1-34)NH2 | – | – | – | > 10000 | > 10000 | > 1000 | – |
| [H5, Y34]hPTH-(1-34)NH2 | – | – | 0.93 ± 0.37 | 249 ± 18 | 5100 | > 1000 | – |
| [Ile^5, Trp^23]PTHrP-(1-36) [[15, W23, Y36]hPTHrP-(1-36)NH2] | – | – | – | 10 ± 1 | 16 ± 3 | 0.5 ± 0.3 | – |
| [Ile^5]PTHrP-(1-36) [[15, Y36]hPTHrP-(1-36)NH2] | – | – | – | 695 ± 171 | – | 7 | – |
| [Nle^8,21, Tyr^34]rat(r)PTH(1-34)NH2 [[Nle8, 21, Y34]rPTH-(1-34)NH2, reference compound] | 11 ± 2 | – | – | – | – | – | – |
| [Trp^23,Tyr^36]hPTHrP-(1-36) [[W23, Y36]hPTHrP-(1-36)NH2] | – | – | 0.26 ± 0.05 | 30 ± 7 | 47 ± 8 | > 1000 | – |
| [Tyr^36]hPTHrP-(1-36)NH2 [[Y36]hPTHrP-(1-36)NH2, reference compound] | – | – | – | 2140 | – | > 1000 | – |
| [W23, Y36]hPTHrP-(15-36)NH2 | 370 ± 100 | > 10000 | – | – | – | – | – |
| [Y34]hPTH-(15-34)NH2 | 624 ± 116 | > 10000 | – | – | – | – | – |
| [Y36]hPTHrP-(15-36)NH2 | – | – | – | 4970 | > 10000 | – | – |
| hPTH-(1-14)/[Y34]hPTHrP-(15-34)NH2 [Hybrid-2] | – | – | – | 750 ± 210 | 497 ± 144 | – | – |
| hPTHrP-(1-21)/[Y34]hPTH-(22-34)NH2 [Hybrid-4] | – | – | – | 11 | 19 ± 6 | > 1000 | – |
| hPTHrP-(1-23)/[Y34]hPTH-(24-34)NH2 [Hybrid 3] | – | – | – | 6050 | 1000 | > 1000 | ~6000 |
| hpTHrP-(1-18)/[Y34]hpTH-(19-34)NH2 [Hybrid-5] | – | – | – | 500 ± 62 | 4970 | > 1000 | – |
